Tests used:
[1] = target: T1, human sphingosine-1-phosphate receptor 1 (S1P1) (Homo sapiens (Human), UniProt P21453); experiment: Inhibition of cAMP production (HTRF cAMP HiRange), S1P1 CHO-K1 cells
[2] = target: T1, human sphingosine-1-phosphate receptor 1 (S1P1); experiment: β-Arrestin2 recruitment assay (PathHunter), S1P1 CHO-K1 cells
[3] = system: paclitaxel induced peripheral neuropathy; experiment: Reversal of allodynia induced by paclitaxel in mice (s.c. or p.o., von Frey frequency method); type: in vivo, c57bl/6 mice; conditions: 3 mg/kg p.o., tested 60 min after dosing
Method: Compounds were tested for efficacy in mouse models of chemotherapy induced peripheral neuropathy. […] For these studies […]/6 mice are habituated to the test environment and baseline measurements of pain sensitivity are assessed. To determine mechanical responses, the threshold for responses to punctate mechanical stimuli (mechanical hyperalgesia) was tested according to the frequency method. In brief, the plantar surface of the animal hindpaw was stimulated with a single von Frey monofilament (0.4 g) for approximately 1-2 seconds. If there was a withdrawal response, it was recorded as a positive response. A response was defined as a lifting or shaking of the paw upon stimulation. This was repeated ten times for each mouse. The final measurement for each mouse is the % non-response to stimulation for the ten trials. The % non-response to stimulation is converted to a % MPE. For paclitaxel induced peripheral neuropathy, a series of injections of PAC (6 mg/kg, i.p.) on days 1, 3, 5 and 7 is used to induce peripheral neuropathy. After approximately 14 days from the initiation of PAC injections, animals are re-assessed for mechanical sensitivity. […] After approximately 14 days from the initiation of PAC injections, animals are re-assessed for mechanical sensitivity. […]

Protein sequences, listed by entry. Tags and fused reporters are not part of them.
UniProt P21453, whole entry: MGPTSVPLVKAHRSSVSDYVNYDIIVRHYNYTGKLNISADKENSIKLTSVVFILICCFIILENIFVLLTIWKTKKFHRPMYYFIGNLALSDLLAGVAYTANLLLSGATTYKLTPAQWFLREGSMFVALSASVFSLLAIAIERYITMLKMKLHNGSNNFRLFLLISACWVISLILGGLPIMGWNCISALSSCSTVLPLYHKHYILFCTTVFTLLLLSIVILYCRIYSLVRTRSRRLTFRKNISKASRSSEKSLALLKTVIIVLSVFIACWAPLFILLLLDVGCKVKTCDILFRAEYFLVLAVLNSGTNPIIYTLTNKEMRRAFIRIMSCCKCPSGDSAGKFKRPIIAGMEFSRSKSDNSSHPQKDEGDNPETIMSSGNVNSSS

[4] = efficacy (SPAN) normalized to fingolimod

N#Cc1cc(-c2nc(-c3ccc4[nH]cnc4c3)no2)ccc1NCC(F)(F)F
hS1P1 cAMP SPAN [1, 4]: >75
hS1P1 cAMP pEC50 ([1]; inhibition of cAMP production, S1P1 CHO-K1 cells): >6.5
hS1P1 B-arrestin2 SPAN [2, 4]: >75
hS1P1 B-arrestin2 pEC50 ([2]; β-arrestin2 recruitment, S1P1 CHO-K1 cells): >5
Screen @ 3 mg/kg po (% MPE) [3]: >50 % MPE
